Data taken from patent US20260034236A1, “NEW DRUG COMPLEX” (KOWA COMPANY, LTD., priority 2022, published 2026).

Test system: EGFR antigen-negative human breast cancer cell line MDA-MB-453
Experiment: Cytotoxic test (CellTiter-Glo), EGFR antigen-negative cells
Type: cell-based
Details: no fraction (—), 4 days culture
Protocol: An EGFR antigen-positive human breast cancer cell line MDA-MB-468 (American Type Culture Collection) and an EGFR antigen-negative human breast cancer cell line MDA-MB-453 (RIKEN BRC CELL BANK) were adjusted to a cell concentration of 2.0×10^4 cells/mL and 4.0×10^4 cells/mL with the RPMI1640 medium, respectively, and 100 μL each was added to a 96-well microplate for cell culture and cultured overnight. On the next day, 100 μL of the evaluation specimen diluted with the RPMI medium was separately added to the microplate, and the cells were cultured for 4 days at 37° C. under 5% CO2. After the culturing, CellTiter-Glo™ Luminescent Cell Viability Assay (Promega Corporation) was added to the microplate, and the mixture was stirred and left to stand at room temperature for 10 minutes. The light emission amount was then measured with a plate reader (Molecular Devices, LLC.). The cell viability was calculated by the following equation.
In the equation, a represents an average value (n=3) of light emission amounts of sample wells, and b represents an average value (n=3) of light emission amounts of sample non-added wells.
An IC50 value, which is an agent concentration at which the cell viability is 50%, was calculated with SAS™ 9.4 Software (SAS Institute Japan Ltd.).

Substance: Cetuximab [Comparative Example 2, reference compound]
- IC50: > 66 nM
